## Membrane permeability of cyclic peptides

Values of Townsend et al. 2020, doi:10.26434/chemrxiv.13335941.v1, as listed in CycPeptMPDB.

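The data file gives no further conditions (lipid, pH, time, direction or concentration), and values from different papers need not be comparable. The list need not hold all peptides of the study. Entries at the database's floor value (log10 P of -10) are not listed.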

PAMPA measures passive passage through an artificial lipid membrane. Values are log10 P with P in cm/s, so -5 is more permeable than -7.

Listed for CC(C)C[C@@H]1NC(=O)[C@@H](CC(C)C)N(C)C(=O)[C@H](C)NC(=O)[C@H](Cc2ccccc2)NC(=O)[C@@H](CC(C)C)N(C)C(=O)[C@@H]2CCCN2C1=O: PAMPA -4.90 (log10 cm/s). For CC(C)C[C@@H]1NC(=O)[C@H]2CCCN2C(=O)CN(Cc2ccccc2)C(=O)[C@@H](CC(C)C)N(C)C(=O)[C@H](C)NC(=O)[C@H](Cc2ccccc2)NC1=O the data give PAMPA -6.10 (log10 cm/s). Listed for CC(C)C[C@@H]1NC(=O)[C@@H]2CCCN2C(=O)[C@H](CC(C)C)NC(=O)CN(Cc2ccccc2)C(=O)C[C@H](Cc2ccccc2)NC(=O)[C@H]2CCCN2C(=O)[C@H](Cc2ccccc2)NC1=O: PAMPA -5.85 (log10 cm/s). For CC(C)C[C@@H]1C(=O)N[C@H](CC(C)C)C(=O)N2CCC[C@@H]2C(=O)N(C)[C@@H](CC(C)C)C(=O)N[C@@H](Cc2ccccc2)C(=O)N2CCC[C@@H]2C(=O)N[C@H](C)C(=O)N1C the data give PAMPA -5.82 (log10 cm/s). For CC(C)C[C@@H]1NC(=O)[C@@H]2CCCN2C(=O)[C@H](CC(C)C)NC(=O)[C@@H](CC(C)C)N(C)C(=O)[C@@H](C)N(C)C(=O)[C@H](Cc2ccccc2)NC1=O the data give PAMPA -5.16 (log10 cm/s). Listed for CC(C)C[C@@H]1C(=O)N[C@@H](Cc2ccccc2)C(=O)N2CCC[C@H]2C(=O)N[C@@H](Cc2ccccc2)CC(=O)N(Cc2ccccc2)CC(=O)N[C@@H](Cc2ccccc2)CC(=O)N2CCC[C@H]2C(=O)N1C: PAMPA -6.18 (log10 cm/s). For CC(C)C[C@H]1C(=O)N[C@@H](Cc2ccccc2)C(=O)N2CCC[C@H]2C(=O)N[C@H](C)C(=O)N(Cc2ccccc2)CC(=O)N[C@@H](Cc2ccccc2)CC(=O)N2CCC[C@H]2C(=O)N1C the data give PAMPA -5.32 (log10 cm/s). CC(C)C[C@@H]1C(=O)N[C@H](CC(C)C)C(=O)N2CCC[C@H]2C(=O)N[C@H](CC(C)C)C(=O)N[C@@H](Cc2ccccc2)C(=O)N2CCC[C@H]2C(=O)N(C)[C@H](C)C(=O)N1C is reported with PAMPA -5.52 (log10 cm/s).

The entry for CC(C)C[C@H]1NC(=O)[C@@H](C)N(C)C(=O)[C@@H]2CCCN2C(=O)[C@H](Cc2ccccc2)NC(=O)[C@H](CC(C)C)N(C)C(=O)[C@H]2CCCN2C(=O)[C@H](CC(C)C)N(C)C1=O lists PAMPA -5.14 (log10 cm/s). CC(C)C[C@H]1NC(=O)[C@@H](C)N(C)C(=O)[C@H]2CCCN2C(=O)[C@H](Cc2ccccc2)NC(=O)[C@H](CC(C)C)N(C)C(=O)[C@@H]2CCCN2C(=O)[C@@H](CC(C)C)NC1=O has PAMPA -5.75 (log10 cm/s). CC(C)C[C@@H]1NC(=O)[C@@H](CC(C)C)NC(=O)[C@H](C)N(C)C(=O)[C@H](Cc2ccccc2)NC(=O)[C@H](CC(C)C)N(C)C(=O)[C@@H]2CCCN2C1=O is reported with PAMPA -5.09 (log10 cm/s). CC(C)C[C@@H]1C(=O)N[C@@H](Cc2ccccc2)CC(=O)N2CCC[C@@H]2C(=O)N(C)[C@H](CC(C)C)C(=O)N[C@@H](Cc2ccccc2)C(=O)N2CCC[C@H]2C(=O)N[C@@H](Cc2ccccc2)CC(=O)N1C is reported with PAMPA -5.69 (log10 cm/s). The entry for CC(C)C[C@H]1NC(=O)C[C@H](Cc2ccccc2)NC(=O)[C@H]2CCCN2C(=O)[C@H](Cc2ccccc2)NC(=O)[C@H](CC(C)C)N(C)C(=O)[C@H]2CCCN2C(=O)CN(Cc2ccccc2)C1=O lists PAMPA -5.62 (log10 cm/s). CCCN1CC(=O)N[C@H](CC(C)C)C(=O)N(C)[C@@H](CC(C)C)C(=O)N2CCC[C@@H]2C(=O)N(C)[C@@H](CC(C)C)C(=O)N[C@@H](Cc2ccccc2)C(=O)N2CCC[C@H]2C1=O is reported with PAMPA -5.07 (log10 cm/s). CC(C)C[C@@H]1C(=O)N(Cc2ccccc2)CC(=O)N2CCC[C@@H]2C(=O)N(C)[C@H](CC(C)C)C(=O)N[C@@H](Cc2ccccc2)C(=O)N2CCC[C@@H]2C(=O)N[C@@H](Cc2ccccc2)CC(=O)N1C is reported with PAMPA -5.72 (log10 cm/s). The entry for CCCN1CC(=O)N(C)[C@@H](CC(C)C)C(=O)N[C@H](CC(C)C)C(=O)N2CCC[C@H]2C(=O)N[C@@H](CC(C)C)C(=O)N[C@@H](Cc2ccccc2)C(=O)N2CCC[C@H]2C1=O lists PAMPA -6.05 (log10 cm/s).

Again, the 2 entries with the lowest PAMPA:

For CC(C)C[C@@H]1C(=O)N[C@@H](Cc2ccccc2)C(=O)N2CCC[C@H]2C(=O)N[C@@H](Cc2ccccc2)CC(=O)N(Cc2ccccc2)CC(=O)N[C@@H](Cc2ccccc2)CC(=O)N2CCC[C@H]2C(=O)N1C the data give PAMPA -6.18 (log10 cm/s).
For CC(C)C[C@@H]1NC(=O)[C@H]2CCCN2C(=O)CN(Cc2ccccc2)C(=O)[C@@H](CC(C)C)N(C)C(=O)[C@H](C)NC(=O)[C@H](Cc2ccccc2)NC1=O the data give PAMPA -6.10 (log10 cm/s).